Read-outs that look alike come from different tables or passages of the source.
Conditions: rat, tail vein IV

acetaminophen
Ratio = brain concentration/plasma concentration of acetaminophen (0.50 h): 0.689
Ratio = brain concentration/plasma concentration of acetaminophen (1 h): 1.00
Ratio = brain concentration/plasma concentration of acetaminophen (2 h): 0.649
Ratio = brain concentration/plasma concentration of acetaminophen (4 h): 0.419

— patent US8722864B2 (Nutek Pharma Ltd., priority 2010, dated 2014)
